Experimental data taken from paper PMC4575187 (PLoS ONE, 2015).

Test system: influenza A/Puerto Rico/8/34 (H1N1)
Format: cell-based, influenza A virus

GLFGAIAGFIKNGWKGMIKG-NH2 [HA-FP-1] was tested, and the “antiviral activity from pre-incubation compared with post infection” value was “much more potent”.

Ends that are not written are not given here.
